pIC50: −log10 of the molar value. The list shows a part of the results, in another mix than the full data. Active and inactive are the calls of the source. No rule for the calls is given here.
What was measured:
Assay in all cases: CXCR6 receptor antagonists, dose response, cell-based, beta-arrestin, DiscoveRx, APJ panel, uHTS hits (AID 624129)
[1] = molecular target: C-X-C chemokine receptor type 6 (Homo sapiens) (UniProt O00574); conditions: CXCR6 beta-arrestin (DiscoveRx) antagonist cell assay
[2] = molecular target: C-C chemokine receptor type 6 (Homo sapiens) (UniProt P51684); conditions: CXCR6 beta-arrestin (DiscoveRx) antagonist cell assay
[3] = molecular target: Apelin receptor (Homo sapiens) (UniProt P35414); conditions: CXCR6 beta-arrestin (DiscoveRx) antagonist cell assay, APJ
[4] = CXCR6, dose range 1, mean IC50 across replicates
[5] = CXCR6, run 2, dose range 1, at 79 µM (top of the series)
[6] = CCR6, dose range 1, mean IC50 across replicates
[7] = dose range 1, mean IC50 across replicates

Protein sequences, listed by entry. Tags and fused reporters are not part of them. Lines headed by an entry give the natural chain unless they say otherwise; changes in a name come on top.
UniProt O00574: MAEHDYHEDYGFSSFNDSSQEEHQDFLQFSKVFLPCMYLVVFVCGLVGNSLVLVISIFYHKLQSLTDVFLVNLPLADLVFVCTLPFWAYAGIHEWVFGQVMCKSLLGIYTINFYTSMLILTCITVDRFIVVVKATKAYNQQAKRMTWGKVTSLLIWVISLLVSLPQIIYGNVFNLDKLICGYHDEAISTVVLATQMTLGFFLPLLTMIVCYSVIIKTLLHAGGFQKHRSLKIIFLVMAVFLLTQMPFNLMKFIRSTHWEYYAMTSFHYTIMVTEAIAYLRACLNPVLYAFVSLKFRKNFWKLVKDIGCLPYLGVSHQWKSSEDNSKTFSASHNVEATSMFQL
UniProt P51684: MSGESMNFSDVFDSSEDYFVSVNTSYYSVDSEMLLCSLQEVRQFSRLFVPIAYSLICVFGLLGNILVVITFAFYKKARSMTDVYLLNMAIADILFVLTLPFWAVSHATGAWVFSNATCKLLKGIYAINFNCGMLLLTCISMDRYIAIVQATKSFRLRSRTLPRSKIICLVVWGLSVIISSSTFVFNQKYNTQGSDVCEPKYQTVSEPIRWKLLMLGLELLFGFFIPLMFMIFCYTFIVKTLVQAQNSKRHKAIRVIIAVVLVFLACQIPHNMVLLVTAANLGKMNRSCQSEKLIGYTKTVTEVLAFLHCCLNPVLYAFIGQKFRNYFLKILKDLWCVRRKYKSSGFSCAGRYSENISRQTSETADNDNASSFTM
UniProt P35414: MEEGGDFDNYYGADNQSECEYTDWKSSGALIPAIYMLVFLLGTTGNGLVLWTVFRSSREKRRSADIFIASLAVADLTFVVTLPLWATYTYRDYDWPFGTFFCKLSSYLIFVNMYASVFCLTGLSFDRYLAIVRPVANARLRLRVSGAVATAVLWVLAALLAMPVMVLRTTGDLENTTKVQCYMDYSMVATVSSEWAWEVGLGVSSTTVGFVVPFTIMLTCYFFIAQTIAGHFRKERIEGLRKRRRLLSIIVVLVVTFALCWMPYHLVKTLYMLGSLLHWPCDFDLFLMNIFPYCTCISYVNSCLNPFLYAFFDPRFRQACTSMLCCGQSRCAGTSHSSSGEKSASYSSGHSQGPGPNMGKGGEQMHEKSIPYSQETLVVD

Compound	outcome ([1]; CXCR6, dose range 1)	pIC50 [1, 4]	pIC50 ([1]; CXCR6, run 1, dose range 2)	inhibition [1, 5]	pIC50 ([1]; CXCR6, run 2, dose range 2)	pIC50 ([1]; CXCR6, dose range 1)	pIC50 ([1]; CXCR6, run 2, dose range 1)	pIC50 ([2]; CCR6, dose range 1)	pIC50 [2, 6]	pIC50 ([2]; CCR6, run 2, dose range 1)	pIC50 ([3]; dose range 1)	pIC50 [3, 7]	pIC50 ([3]; run 2, dose range 1)	pIC50 ([3]; run 3, dose range 1)	IC50 ([1]; CXCR6, dose range 1)	inhibition ([1]; CXCR6, run 1, dose range 2, at 80 µM (top of the series))
CSc1ccc(Nc2c([N+](=O)[O-])cc([N+](=O)[O-])cc2[N+](=O)[O-])cc1	inactive	4.48	4.45	90.7%	4.51	–	–	–	–	–	–	–	–	–	–	–
O=c1c2cc([N+](=O)[O-])ccc2[nH]c2c([N+](=O)[O-])cc([N+](=O)[O-])cc12	inactive	4.50	4.53	99.5%	4.47	–	–	–	–	–	–	–	–	–	–	–
CN(C)C(=O)c1cc([N+](=O)[O-])cc2c1-c1c(cc([N+](=O)[O-])cc1[N+](=O)[O-])C2=O	–	4.99	5.04	–	4.98	4.91	5.03	5.09	5.13	5.18	4.34	4.44	4.57	< 4.10	–	–
C[N+]1=C2C=CC=CC=C2SC12C([N+](=O)[O-])=CC([N+](=O)[O-])=C[C-]2[N+](=O)[O-] (stereo not drawn)	–	4.61	–	–	–	–	4.48	4.61	4.49	4.39	5.10	4.82	4.83	4.64	inactive	129%
